From ChEMBL document CHEMBL5620431, “2,4-Diaryl-pyrimido[1,2-a]benzimidazole derivatives as novel anticancer agents endowed with potent anti-leukemia activity: Synthesis, biological evaluation and kinase profiling” (Eur J Med Chem, 2023) come the findings set out here.

Protein sequences, listed by entry. Tags and fused reporters are not part of them. Lines headed by an entry give the natural chain unless they say otherwise; changes in a name come on top.
UniProt P49841: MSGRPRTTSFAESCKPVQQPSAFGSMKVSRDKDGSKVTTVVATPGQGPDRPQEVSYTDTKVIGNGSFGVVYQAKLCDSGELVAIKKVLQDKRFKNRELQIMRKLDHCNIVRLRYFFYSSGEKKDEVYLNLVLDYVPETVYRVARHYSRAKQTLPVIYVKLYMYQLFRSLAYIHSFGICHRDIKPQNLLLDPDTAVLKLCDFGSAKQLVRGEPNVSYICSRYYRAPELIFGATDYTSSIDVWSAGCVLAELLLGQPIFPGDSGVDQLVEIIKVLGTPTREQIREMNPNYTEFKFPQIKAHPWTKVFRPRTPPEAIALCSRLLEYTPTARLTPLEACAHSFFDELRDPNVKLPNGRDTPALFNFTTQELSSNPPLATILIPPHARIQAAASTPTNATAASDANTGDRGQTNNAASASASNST
UniProt Q02763: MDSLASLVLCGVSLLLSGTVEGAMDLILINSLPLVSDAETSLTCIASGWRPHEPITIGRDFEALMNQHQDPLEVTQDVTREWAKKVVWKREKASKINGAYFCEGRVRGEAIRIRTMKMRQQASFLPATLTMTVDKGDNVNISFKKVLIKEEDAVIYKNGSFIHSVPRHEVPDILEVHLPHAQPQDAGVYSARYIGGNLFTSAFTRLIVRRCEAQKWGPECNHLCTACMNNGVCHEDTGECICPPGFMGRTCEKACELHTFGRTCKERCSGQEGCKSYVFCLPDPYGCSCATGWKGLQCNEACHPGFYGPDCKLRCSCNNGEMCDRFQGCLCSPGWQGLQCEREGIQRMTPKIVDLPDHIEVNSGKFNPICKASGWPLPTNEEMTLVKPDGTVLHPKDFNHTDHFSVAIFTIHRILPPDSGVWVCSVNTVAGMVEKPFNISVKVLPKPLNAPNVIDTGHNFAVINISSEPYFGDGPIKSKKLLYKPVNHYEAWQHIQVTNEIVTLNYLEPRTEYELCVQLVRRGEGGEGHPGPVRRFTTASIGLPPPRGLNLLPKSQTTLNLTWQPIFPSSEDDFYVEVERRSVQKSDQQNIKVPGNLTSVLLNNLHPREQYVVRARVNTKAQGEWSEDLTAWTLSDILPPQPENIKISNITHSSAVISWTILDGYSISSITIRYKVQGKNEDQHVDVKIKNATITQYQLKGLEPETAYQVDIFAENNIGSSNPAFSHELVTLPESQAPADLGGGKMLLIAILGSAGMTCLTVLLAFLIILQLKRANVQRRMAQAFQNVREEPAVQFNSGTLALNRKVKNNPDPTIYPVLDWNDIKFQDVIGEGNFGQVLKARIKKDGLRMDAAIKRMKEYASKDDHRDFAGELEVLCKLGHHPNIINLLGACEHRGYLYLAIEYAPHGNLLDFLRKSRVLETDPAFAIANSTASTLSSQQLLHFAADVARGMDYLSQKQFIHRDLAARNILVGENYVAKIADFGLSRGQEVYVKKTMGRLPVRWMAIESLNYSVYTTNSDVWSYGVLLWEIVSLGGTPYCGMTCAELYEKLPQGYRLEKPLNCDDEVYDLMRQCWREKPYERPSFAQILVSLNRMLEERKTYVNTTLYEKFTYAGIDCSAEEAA

Test [1] deals with Glycogen synthase kinase-3 beta (Homo sapiens) (UniProt P49841). Put plainly: Inhibition of GSK3beta (unknown origin) using ULight-PASVPPSPSLSRHSSPHQ(pS)ED as substrate upto 20 uM incubated for 1 hrs in presence of ATP by TR-FRET assay. In general terms: TR-FRET usually uses a lanthanide donor and a delayed reading to cut background.
Test [2] deals with Cyclin-dependent kinase 2 (Homo sapiens) (UniProt P24941). Put plainly: Inhibition of CDK2 (unknown origin) using Histone H1 as substrate upto 20 uM incubated in presence of ATP.
For test [3], the target named is T1, Tyrosine-protein kinase Tec (Homo sapiens) (UniProt P42680).
T1 sequence (whole entry): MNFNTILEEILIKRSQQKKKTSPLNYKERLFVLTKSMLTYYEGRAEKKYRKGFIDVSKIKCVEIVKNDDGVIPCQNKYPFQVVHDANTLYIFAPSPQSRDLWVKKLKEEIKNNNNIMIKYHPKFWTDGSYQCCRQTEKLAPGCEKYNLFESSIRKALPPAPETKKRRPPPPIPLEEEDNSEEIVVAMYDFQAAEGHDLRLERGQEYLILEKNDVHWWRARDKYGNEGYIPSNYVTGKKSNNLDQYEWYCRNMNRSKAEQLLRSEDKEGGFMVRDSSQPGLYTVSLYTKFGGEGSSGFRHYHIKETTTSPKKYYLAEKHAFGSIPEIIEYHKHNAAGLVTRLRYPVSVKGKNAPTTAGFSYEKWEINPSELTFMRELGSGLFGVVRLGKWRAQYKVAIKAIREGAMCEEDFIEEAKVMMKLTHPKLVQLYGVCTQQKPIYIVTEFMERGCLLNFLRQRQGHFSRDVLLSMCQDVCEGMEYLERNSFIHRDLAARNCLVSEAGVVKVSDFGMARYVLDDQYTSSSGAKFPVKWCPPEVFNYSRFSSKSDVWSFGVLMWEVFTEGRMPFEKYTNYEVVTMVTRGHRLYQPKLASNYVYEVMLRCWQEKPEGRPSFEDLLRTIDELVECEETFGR
Nature of the test: Inhibition of TEC (unknown origin) at 10 uM relative to control.

Test [4] deals with T2, Cytoplasmic tyrosine-protein kinase BMX (Homo sapiens) (UniProt P51813).
T2 sequence (whole entry): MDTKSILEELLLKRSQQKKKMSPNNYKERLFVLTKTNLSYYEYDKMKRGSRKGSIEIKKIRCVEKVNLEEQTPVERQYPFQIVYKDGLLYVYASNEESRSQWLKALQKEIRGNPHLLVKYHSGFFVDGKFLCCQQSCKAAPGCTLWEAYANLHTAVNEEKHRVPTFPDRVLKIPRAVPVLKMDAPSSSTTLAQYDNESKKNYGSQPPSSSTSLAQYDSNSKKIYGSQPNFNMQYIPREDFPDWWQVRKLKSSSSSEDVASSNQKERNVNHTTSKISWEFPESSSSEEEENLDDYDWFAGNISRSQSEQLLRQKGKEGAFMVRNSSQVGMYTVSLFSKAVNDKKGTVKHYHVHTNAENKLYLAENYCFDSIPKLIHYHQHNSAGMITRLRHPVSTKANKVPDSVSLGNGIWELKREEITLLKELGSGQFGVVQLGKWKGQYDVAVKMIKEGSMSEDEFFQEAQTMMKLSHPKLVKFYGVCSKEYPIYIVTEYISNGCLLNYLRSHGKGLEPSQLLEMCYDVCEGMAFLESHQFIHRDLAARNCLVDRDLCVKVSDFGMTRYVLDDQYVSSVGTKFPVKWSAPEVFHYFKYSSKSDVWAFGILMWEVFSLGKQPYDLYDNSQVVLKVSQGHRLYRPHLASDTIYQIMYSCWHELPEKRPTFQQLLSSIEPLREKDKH
Nature of the test: Inhibition of BMX (unknown origin) at 1 uM relative to control.

Test [5] concerns the target Angiopoietin-1 receptor (Homo sapiens) (UniProt Q02763). Nature of the test: Inhibition of TIE2 (unknown origin) at 1 uM relative to control.

SMILES strings stand for the structures. Calls of active or inactive are those of the source. The calls are words filed in the database; no cut-off is given here.

For the compound `COc1ccc(-c2cc(-c3cccc4ccccc34)n3c(n2)nc2ccccc23)cc1`, the inhibition result in test [1] and in test [2] was “inactive” each time.
Turning to `COc1ccc(-c2cc(-c3ccc(N(C)C)cc3)n3c(n2)nc2ccccc23)cc1OC`, the inhibition entry in test [1] and in test [2] was “inactive” in each case.
Regarding `CN(C)c1ccc(-c2cc(-c3ccc(Cl)cc3)nc3nc4ccccc4n23)cc1`, the inhibition entry in test [1] and in test [2] was “inactive” in each case.
Regarding `Cc1ccc(-c2cc(-c3ccc(N(C)C)cc3)n3c(n2)nc2ccccc23)cc1`, the inhibition result in test [1] and in test [2] was “inactive” each time.
For `COc1ccc(-c2cc(-c3ccc(N4CCOCC4)cc3)n3c(n2)nc2ccccc23)cc1OC`, the inhibition entry in test [1] and in test [2] was “inactive” throughout.
In the case of `COc1ccc(-c2cc(-c3ccc4c(c3)OCO4)n3c(n2)nc2ccccc23)cc1`, the inhibition entry in test [1] and in test [2] was “inactive” each time.
As to `Clc1ccc(-c2cc(-c3ccc(N4CCOCC4)cc3)n3c(n2)nc2ccccc23)cc1`, the inhibition result in test [1] and in test [2] was “inactive” in each case.
Turning to `Clc1ccc(-c2cc(-c3cccc4ccccc34)n3c(n2)nc2ccccc23)cc1`, the inhibition entry in test [1] and in test [2] was “inactive” each time.
Turning to `Clc1ccc(-c2cc(-c3ccc4c(c3)OCO4)n3c(n2)nc2ccccc23)cc1`, the inhibition entry in test [1] and in test [2] was “inactive” in each case.
In the case of `Cc1ccc(-c2cc(-c3ccc(N4CCOCC4)cc3)n3c(n2)nc2ccccc23)cc1`, the inhibition entry in test [1] and in test [2] was “inactive” each time.
Consider `COc1ccc(-c2cc(-c3cccc4ccccc34)n3c(n2)nc2ccccc23)cc1OC`, for which the inhibition entry in test [1] and in test [2] was “inactive” throughout. Also, in test [3], the inhibition (commonly the change of the read-out against control, counted positive when it falls) amounted to 82%.
For `COc1ccc(-c2cc(-c3ccc4c(c3)OCO4)n3c(n2)nc2ccccc23)cc1OC`, the inhibition result in test [1] and in test [2] was “inactive” throughout.
As for `Cc1ccc(-c2cc(-c3ccc4c(c3)OCO4)n3c(n2)nc2ccccc23)cc1`, the inhibition entry in test [1] and in test [2] was “inactive” throughout.
`COc1ccc(-c2cc(-c3ccc(N4CCOCC4)cc3)n3c(n2)nc2ccccc23)cc1`: the inhibition result in test [1] and in test [2] was “inactive” each time.
For the compound `Cc1ccc(-c2cc(-c3cccc4ccccc34)n3c(n2)nc2ccccc23)cc1`, the inhibition entry in test [1] and in test [2] was “inactive” in each case. Moreover, the inhibition in test [4] is 16%; in test [5], 27%.
Consider `COc1ccc(-c2cc(-c3ccc(N(C)C)cc3)n3c(n2)nc2ccccc23)cc1`, for which the inhibition entry in test [1] and in test [2] was “inactive” each time.
